Measured values as given in paper PMC10009755, “Discovery and Characterization of BAY-805, a Potent and Selective Inhibitor of Ubiquitin-Specific Protease USP21” (Journal of Medicinal Chemistry, 2023).

Chains of the proteins cited; added tags and fusions are not shown. Lines headed by an entry give the natural chain unless they say otherwise; changes in a name come on top. Residues count along the entry.
UniProt O15146, 24-869: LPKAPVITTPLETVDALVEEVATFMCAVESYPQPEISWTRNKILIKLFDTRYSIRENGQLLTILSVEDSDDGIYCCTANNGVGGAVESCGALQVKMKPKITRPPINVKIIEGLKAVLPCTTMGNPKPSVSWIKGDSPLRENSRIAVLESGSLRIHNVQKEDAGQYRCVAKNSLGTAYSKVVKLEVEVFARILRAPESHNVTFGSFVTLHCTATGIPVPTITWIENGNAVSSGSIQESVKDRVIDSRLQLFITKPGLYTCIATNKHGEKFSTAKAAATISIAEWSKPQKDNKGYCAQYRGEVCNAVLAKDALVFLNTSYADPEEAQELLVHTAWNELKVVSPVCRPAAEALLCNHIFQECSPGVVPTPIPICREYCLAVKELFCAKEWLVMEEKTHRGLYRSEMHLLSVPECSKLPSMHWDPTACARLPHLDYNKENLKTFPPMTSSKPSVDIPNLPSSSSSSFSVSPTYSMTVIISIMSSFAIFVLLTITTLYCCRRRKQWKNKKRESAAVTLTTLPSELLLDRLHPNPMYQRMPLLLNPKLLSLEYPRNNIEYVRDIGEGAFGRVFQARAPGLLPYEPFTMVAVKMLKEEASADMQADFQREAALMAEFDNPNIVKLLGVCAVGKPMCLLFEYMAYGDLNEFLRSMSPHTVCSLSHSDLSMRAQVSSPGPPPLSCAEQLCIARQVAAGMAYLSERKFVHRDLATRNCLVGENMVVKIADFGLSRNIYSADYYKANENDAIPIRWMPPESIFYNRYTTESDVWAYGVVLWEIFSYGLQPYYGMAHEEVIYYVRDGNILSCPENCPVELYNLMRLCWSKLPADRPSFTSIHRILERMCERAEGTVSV
UniProt P29320, 21-983: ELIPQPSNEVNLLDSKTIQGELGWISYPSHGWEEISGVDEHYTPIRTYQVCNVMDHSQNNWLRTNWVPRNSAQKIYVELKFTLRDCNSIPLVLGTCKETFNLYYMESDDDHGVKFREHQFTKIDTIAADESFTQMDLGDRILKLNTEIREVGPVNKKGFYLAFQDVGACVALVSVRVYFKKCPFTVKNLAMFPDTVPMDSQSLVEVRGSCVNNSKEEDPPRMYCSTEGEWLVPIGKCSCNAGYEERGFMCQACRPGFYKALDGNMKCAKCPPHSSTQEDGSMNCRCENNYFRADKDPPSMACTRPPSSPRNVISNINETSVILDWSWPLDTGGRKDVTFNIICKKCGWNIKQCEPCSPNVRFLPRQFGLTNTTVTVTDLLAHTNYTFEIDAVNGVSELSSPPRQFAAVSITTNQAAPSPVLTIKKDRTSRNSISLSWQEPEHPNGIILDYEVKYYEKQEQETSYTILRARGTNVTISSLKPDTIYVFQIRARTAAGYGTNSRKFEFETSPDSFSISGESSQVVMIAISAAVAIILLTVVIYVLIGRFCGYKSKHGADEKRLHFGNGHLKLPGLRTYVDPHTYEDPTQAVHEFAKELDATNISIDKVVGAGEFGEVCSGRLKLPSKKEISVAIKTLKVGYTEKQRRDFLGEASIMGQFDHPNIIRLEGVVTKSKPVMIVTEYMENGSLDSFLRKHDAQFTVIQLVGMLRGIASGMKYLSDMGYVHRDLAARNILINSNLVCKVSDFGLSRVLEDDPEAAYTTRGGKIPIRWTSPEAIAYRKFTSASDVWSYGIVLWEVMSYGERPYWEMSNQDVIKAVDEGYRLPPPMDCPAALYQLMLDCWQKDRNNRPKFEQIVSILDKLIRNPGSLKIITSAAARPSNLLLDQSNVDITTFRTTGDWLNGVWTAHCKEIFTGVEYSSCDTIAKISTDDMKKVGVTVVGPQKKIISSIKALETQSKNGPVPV
UniProt P51451: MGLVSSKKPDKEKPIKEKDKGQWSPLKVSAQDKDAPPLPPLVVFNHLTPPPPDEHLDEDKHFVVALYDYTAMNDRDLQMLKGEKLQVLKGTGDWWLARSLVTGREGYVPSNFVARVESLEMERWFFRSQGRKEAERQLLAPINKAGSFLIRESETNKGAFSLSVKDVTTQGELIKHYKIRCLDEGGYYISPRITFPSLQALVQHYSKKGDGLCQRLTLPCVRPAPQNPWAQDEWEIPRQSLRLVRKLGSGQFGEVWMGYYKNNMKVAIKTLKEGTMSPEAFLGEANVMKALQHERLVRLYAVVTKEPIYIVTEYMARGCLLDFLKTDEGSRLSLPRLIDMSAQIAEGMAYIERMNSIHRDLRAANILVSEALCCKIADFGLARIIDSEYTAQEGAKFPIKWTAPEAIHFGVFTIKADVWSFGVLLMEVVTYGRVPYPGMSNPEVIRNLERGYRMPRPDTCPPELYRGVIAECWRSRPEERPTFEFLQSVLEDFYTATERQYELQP
UniProt Q8WU08: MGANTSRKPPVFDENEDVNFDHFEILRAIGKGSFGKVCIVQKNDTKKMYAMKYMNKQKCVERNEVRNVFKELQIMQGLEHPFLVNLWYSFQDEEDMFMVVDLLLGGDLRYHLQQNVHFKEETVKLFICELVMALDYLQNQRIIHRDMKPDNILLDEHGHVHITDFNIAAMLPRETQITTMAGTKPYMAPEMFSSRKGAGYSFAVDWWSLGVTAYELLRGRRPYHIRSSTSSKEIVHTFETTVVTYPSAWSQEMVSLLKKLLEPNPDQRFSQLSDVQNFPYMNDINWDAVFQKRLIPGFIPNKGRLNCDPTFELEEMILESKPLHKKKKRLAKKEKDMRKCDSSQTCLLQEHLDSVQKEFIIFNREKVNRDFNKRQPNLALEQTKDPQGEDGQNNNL
UniProt P19784, whole entry: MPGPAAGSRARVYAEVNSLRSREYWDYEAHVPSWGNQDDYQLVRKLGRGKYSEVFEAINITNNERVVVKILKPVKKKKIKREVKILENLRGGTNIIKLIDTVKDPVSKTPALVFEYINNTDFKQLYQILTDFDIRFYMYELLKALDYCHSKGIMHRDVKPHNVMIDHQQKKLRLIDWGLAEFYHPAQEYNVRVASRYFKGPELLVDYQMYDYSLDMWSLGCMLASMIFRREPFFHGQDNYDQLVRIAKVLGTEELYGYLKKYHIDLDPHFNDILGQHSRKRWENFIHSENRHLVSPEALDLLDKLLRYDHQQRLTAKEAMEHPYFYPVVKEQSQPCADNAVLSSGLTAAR
UniProt O14578, whole entry: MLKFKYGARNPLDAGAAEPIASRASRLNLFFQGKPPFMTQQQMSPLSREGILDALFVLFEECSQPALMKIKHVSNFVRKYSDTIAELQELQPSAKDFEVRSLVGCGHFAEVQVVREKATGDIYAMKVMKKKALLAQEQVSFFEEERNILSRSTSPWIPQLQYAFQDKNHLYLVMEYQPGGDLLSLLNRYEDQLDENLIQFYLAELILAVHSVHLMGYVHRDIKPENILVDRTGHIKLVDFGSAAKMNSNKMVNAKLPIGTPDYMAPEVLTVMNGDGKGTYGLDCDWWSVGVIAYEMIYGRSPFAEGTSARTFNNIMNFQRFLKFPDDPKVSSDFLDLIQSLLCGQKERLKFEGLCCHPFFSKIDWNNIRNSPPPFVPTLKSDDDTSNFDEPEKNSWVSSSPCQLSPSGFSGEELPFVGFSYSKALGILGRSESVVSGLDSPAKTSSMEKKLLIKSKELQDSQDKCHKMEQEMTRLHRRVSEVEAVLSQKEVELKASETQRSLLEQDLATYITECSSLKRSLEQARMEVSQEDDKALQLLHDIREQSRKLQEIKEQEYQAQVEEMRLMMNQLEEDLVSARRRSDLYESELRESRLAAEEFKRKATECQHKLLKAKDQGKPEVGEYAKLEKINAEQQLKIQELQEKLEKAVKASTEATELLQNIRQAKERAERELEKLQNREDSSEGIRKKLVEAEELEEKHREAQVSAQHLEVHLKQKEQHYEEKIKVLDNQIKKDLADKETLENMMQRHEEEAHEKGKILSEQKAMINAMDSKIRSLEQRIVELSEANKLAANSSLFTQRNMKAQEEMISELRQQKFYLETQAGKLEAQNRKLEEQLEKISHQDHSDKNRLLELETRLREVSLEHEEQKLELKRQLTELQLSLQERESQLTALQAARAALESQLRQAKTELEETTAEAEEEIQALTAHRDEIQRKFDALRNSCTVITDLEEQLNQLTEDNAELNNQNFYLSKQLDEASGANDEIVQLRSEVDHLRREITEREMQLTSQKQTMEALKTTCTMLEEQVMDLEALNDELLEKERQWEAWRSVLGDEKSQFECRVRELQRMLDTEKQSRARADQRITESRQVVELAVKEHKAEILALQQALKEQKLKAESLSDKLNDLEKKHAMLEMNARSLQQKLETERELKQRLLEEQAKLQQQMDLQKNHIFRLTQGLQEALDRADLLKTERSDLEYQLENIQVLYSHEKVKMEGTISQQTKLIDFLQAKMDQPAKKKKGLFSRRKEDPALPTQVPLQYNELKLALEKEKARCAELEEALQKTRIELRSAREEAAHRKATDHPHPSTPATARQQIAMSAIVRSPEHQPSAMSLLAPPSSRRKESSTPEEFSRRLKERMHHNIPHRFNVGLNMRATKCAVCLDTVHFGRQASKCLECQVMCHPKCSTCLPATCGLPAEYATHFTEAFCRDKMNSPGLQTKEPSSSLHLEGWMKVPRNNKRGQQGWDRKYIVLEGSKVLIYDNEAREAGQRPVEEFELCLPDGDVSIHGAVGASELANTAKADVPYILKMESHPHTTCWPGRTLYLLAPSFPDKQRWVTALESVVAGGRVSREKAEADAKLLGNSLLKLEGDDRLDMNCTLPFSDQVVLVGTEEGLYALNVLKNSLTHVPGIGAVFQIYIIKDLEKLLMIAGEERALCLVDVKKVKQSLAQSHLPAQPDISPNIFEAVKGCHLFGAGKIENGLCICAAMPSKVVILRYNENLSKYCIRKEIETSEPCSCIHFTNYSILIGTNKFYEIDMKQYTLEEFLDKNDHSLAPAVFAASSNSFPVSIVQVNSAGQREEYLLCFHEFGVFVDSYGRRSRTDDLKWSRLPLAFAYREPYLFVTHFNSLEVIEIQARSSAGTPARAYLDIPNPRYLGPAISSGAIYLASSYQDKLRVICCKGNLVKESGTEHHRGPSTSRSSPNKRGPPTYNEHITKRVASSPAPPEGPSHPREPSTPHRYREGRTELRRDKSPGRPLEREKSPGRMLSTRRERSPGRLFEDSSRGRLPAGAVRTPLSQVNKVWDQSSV
UniProt O43781: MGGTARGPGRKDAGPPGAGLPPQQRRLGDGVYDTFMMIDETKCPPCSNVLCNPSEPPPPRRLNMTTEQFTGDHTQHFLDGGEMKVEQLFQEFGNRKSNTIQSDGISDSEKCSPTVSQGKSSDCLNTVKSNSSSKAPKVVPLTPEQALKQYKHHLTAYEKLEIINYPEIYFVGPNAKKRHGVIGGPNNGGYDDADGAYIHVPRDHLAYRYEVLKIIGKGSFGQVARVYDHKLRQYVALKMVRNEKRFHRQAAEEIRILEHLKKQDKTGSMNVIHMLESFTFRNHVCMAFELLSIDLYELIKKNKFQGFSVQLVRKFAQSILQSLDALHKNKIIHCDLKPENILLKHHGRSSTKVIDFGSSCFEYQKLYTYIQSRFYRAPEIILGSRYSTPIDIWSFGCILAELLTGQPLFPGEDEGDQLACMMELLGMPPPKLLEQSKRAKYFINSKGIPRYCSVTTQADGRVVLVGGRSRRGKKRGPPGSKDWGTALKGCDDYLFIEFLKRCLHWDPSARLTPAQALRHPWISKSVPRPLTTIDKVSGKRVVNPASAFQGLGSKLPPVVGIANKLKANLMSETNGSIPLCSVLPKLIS
UniProt Q9H2K8: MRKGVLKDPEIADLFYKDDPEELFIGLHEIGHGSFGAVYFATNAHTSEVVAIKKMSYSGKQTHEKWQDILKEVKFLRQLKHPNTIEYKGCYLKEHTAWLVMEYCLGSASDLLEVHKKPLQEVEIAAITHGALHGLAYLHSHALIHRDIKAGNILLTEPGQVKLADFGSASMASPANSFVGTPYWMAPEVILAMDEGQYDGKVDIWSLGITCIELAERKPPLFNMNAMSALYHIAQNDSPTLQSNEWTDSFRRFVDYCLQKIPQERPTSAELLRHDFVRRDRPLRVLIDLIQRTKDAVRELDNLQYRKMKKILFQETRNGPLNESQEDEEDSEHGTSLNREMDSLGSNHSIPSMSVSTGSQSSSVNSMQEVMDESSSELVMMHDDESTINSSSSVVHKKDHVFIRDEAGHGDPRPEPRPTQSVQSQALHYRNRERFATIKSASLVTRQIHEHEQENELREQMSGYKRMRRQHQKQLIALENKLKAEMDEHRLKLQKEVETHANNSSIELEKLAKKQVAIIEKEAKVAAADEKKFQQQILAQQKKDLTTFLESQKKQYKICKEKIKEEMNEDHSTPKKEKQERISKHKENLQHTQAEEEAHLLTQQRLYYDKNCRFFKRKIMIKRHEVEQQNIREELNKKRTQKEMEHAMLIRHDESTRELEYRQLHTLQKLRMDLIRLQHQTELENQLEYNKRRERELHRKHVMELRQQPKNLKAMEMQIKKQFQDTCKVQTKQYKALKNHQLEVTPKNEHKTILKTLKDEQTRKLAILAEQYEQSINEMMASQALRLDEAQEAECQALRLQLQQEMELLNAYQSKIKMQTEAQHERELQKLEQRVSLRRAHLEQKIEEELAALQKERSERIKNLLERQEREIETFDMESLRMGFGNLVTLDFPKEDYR

How the values were obtained:
[1] = tested on: Glutamate, NMDA, Glycine; conditions: 10 µM
[2] = target: MELK(h) (Homo sapiens, UniProt Q14680); experiment: biochemical
[3] = target: TSSK2(h) (Homo sapiens, UniProt Q96PF2); experiment: biochemical
[4] = target: TSSK4(h) (Homo sapiens, UniProt Q6SA08); experiment: biochemical
[5] = target: CHK2(h) (Homo sapiens, UniProt O96017); experiment: biochemical
[6] = target: Adenosine A2A (Homo sapiens, UniProt P29274); experiment: biochemical; conditions: read-out: % Inh.
[7] = tested on: GABAB, Non-Selective; conditions: 10 µM
[8] = target: ARK5(h) (Homo sapiens, UniProt O60285); experiment: biochemical
[9] = target: Peptidase, Angiotensin Converting Enzyme (Homo sapiens, UniProt P12821); experiment: biochemical; conditions: read-out: % Inh.
[10] = target: PKCzeta(h) (Homo sapiens, UniProt Q05513); experiment: biochemical
[11] = target: PASK(h) (Homo sapiens, UniProt Q96RG2); experiment: biochemical
[12] = target: CDK16/cyclinY(h) (Homo sapiens, UniProt Q00536); experiment: biochemical
[13] = target: GRK2(h) (Homo sapiens, UniProt P25098); experiment: biochemical
[14] = target: MuSK(h) (Homo sapiens, UniProt O15146); experiment: biochemical
[15] = target: Ret(h) (Homo sapiens, UniProt P07949); experiment: biochemical
[16] = target: Motilin (Homo sapiens, UniProt O43193); experiment: biochemical; conditions: read-out: % Inh.
[17] = target: LATS1(h) (Homo sapiens, UniProt O95835); experiment: biochemical
[18] = target: Histamine H3 (Homo sapiens, UniProt Q9Y5N1); experiment: biochemical; conditions: read-out: % Inh.
[19] = target: TTK(h) (Homo sapiens, UniProt P33981); experiment: biochemical
[20] = target: cKit(h) (Homo sapiens, UniProt P10721); experiment: biochemical
[21] = target: TGFBR1(h) (Homo sapiens, UniProt P36897); experiment: biochemical
[22] = target: SIK3(h) (Homo sapiens, UniProt Q9Y2K2); experiment: biochemical
[23] = target: MST4(h) (Homo sapiens, UniProt Q9P289); experiment: biochemical
[24] = target: EphA3(h) (Homo sapiens, UniProt P29320); experiment: biochemical
[25] = target: LIMK2(h) (Homo sapiens, UniProt P53671); experiment: biochemical
[26] = target: Blk(h) (Homo sapiens, UniProt P51451); experiment: biochemical
[27] = target: BrSK2(h) (Homo sapiens, UniProt Q8IWQ3); experiment: biochemical
[28] = target: PKCdelta(h) (Homo sapiens, UniProt Q05655); experiment: biochemical
[29] = target: HIPK4(h) (Homo sapiens, UniProt Q8NE63); experiment: biochemical
[30] = target: IGF-1R(h), activated (Homo sapiens, UniProt P08069); experiment: biochemical
[31] = target: WNK3(h) (Homo sapiens, UniProt Q9BYP7); experiment: biochemical
[32] = target: TSSK3(h) (Homo sapiens, UniProt Q96PN8); experiment: biochemical
[33] = target: STK32A(h) (Homo sapiens, UniProt Q8WU08); experiment: biochemical
[34] = target: Cyclooxygenase COX-1 (Homo sapiens, UniProt P23219); experiment: biochemical; conditions: read-out: % Inh.
[35] = target: USP4 (Homo sapiens, UniProt Q13107); experiment: biochemical; conditions: read-out: Activity (% Control)
[36] = target: PAK6(h) (Homo sapiens, UniProt Q9NQU5); experiment: biochemical
[37] = target: CK2alpha2(h) (Homo sapiens, UniProt P19784); experiment: biochemical
[38] = target: CRIK(h) (Homo sapiens, UniProt O14578); experiment: biochemical
[39] = target: DYRK3(h) (Homo sapiens, UniProt O43781); experiment: biochemical
[40] = target: PhKgamma2(h) (Homo sapiens, UniProt P15735); experiment: biochemical
[41] = tested on: Glutamate, Kainate; conditions: 10 µM
[42] = target: TAO3(h) (Homo sapiens, UniProt Q9H2K8); experiment: biochemical
[43] = target: DRAK1(h) (Homo sapiens, UniProt Q9UEE5); experiment: biochemical

SMILES: CC(C)C[C@H](NC(=O)C1(C(F)(F)F)CCCCC1)C(=O)Nc1nnc(Cc2ccc(C#N)cc2)s1 [Compound 22, CC(C)C[C@H](NC(=O)C1(CCCCC1)C(F)(F)F)C(=O)Nc2nnc(Cc3ccc(cc3)C#N)s2]
- % Inh. [1]: 19%
- inhibition at 10 µM [2]: 4.43%
- inhibition at 10 µM [3]: 16.4%
- inhibition at 10 µM [4]: 9.24%
- inhibition at 10 µM [5]: -1.61%
- inhibition at 10 µM [6]: 3%
- % Inh. [7]: -1%
- inhibition at 10 µM [8]: 10.7%
- inhibition at 10 µM [9]: -28%
- inhibition at 10 µM [10]: -0.09%
- inhibition at 10 µM [11]: 11.3%
- inhibition at 10 µM [12]: 20.8%
- inhibition at 10 µM [13]: -0.15%
- inhibition at 10 µM [14]: 1.15%
- inhibition at 10 µM [15]: 1.67%
- inhibition at 10 µM [16]: 4%
- inhibition at 10 µM [17]: 11.9%
- inhibition at 10 µM [18]: 2%
- inhibition at 10 µM [19]: 2.5%
- inhibition at 10 µM [20]: -4.4%
- inhibition at 10 µM [21]: -2.34%
- inhibition at 10 µM [22]: 1.46%
- inhibition at 10 µM [23]: 3.88%
- inhibition at 10 µM [24]: -27.2%
- inhibition at 10 µM [25]: -0.4%
- inhibition at 10 µM [26]: 3.04%
- inhibition at 10 µM [27]: -5.3%
- inhibition at 10 µM [28]: 5.78%
- inhibition at 10 µM [29]: 6.43%
- inhibition at 10 µM [30]: 3.24%
- inhibition at 10 µM [31]: -4.01%
- inhibition at 10 µM [32]: 15.5%
- inhibition at 10 µM [33]: 0.29%
- inhibition at 10 µM [34]: 3%
- remaining activity at 10 µM [35]: 98%
- remaining activity at 50 µM [35]: 91%
- inhibition at 10 µM [36]: 3.73%
- inhibition at 10 µM [37]: 0.25%
- inhibition at 10 µM [38]: 6.31%
- inhibition at 10 µM [39]: -6.72%
- inhibition at 10 µM [40]: 9.2%
- % Inh. [41]: -5
- inhibition at 10 µM [42]: 3.93%
- inhibition at 10 µM [43]: -21.9%

SMILES: CC(C)C[C@@H](NC(=O)C1(C(F)(F)F)CCCCC1)C(=O)Nc1nnc(Cc2ccc(C#N)cc2)s1 [Compound 21, N-[(1R)-1-[[5-[(4-Cyanophenyl)methyl]-1,3,4-thiadiazol-2-yl]carbamoyl]-3-methyl-butyl]-1-(trifluoromethyl)cyclohexanecarboxamide]
- % Inh. [1]: 6%
- inhibition at 10 µM [2]: 8.28%
- inhibition at 10 µM [3]: 15.1%
- inhibition at 10 µM [4]: 27.8%
- inhibition at 10 µM [5]: 4.79%
- inhibition at 10 µM [6]: 2%
- % Inh. [7]: -2%
- inhibition at 10 µM [8]: -0.18%
- inhibition at 10 µM [9]: -33%
- inhibition at 10 µM [10]: 6.74%
- inhibition at 10 µM [11]: 15.4%
- inhibition at 10 µM [12]: 2.36%
- inhibition at 10 µM [13]: 5.48%
- inhibition at 10 µM [14]: 6.14%
- inhibition at 10 µM [15]: -7.7%
- inhibition at 10 µM [16]: 10%
- inhibition at 10 µM [17]: 21.9%
- inhibition at 10 µM [18]: -2%
- inhibition at 10 µM [19]: 5.09%
- inhibition at 10 µM [20]: -0.55%
- inhibition at 10 µM [21]: 7.47%
- inhibition at 10 µM [22]: 9.94%
- inhibition at 10 µM [23]: 6.75%
- inhibition at 10 µM [24]: -9.71%
- inhibition at 10 µM [25]: 2.4%
- inhibition at 10 µM [26]: -2.02%
- inhibition at 10 µM [27]: -0.32%
- inhibition at 10 µM [28]: 7.71%
- inhibition at 10 µM [29]: 7.73%
- inhibition at 10 µM [30]: -2.37%
- inhibition at 10 µM [31]: -17.6%
- inhibition at 10 µM [32]: 24.5%
- inhibition at 10 µM [33]: 1.52%
- inhibition at 10 µM [34]: -2%
- remaining activity at 10 µM [35]: 98%
- remaining activity at 50 µM [35]: 93%
- inhibition at 10 µM [36]: 6.95%
- inhibition at 10 µM [37]: -3%
- inhibition at 10 µM [38]: 5.6%
- inhibition at 10 µM [39]: -6.78%
- inhibition at 10 µM [40]: 5.66%
- % Inh. [41]: -7
- inhibition at 10 µM [42]: 7.12%
- inhibition at 10 µM [43]: -23.4%
